Assay: Log D in 1-Octanol/PBS pH 7.4
Type: physicochemical

Progesterone [reference compound]
LogD Value: 3.78
